Measured values: article PMC7057333, “Macrocyclic Peptides Uncover a Novel Binding Mode for Reversible Inhibitors of LSD1” (ACS Omega, 2020)
“Also recorded” adds a separate entry of the source.

Experiments:
LSD1 [1] = target: T1, LSD1 (Homo sapiens, UniProt O60341); experiment: SPR biosensor interaction kinetic assay with immobilized LSD1 (15 °C, TBS-T with DTT); format: binding; conditions: for KD: immobilized LSD1, 15 °C, ni = no interaction observed, ns = high nonspecific binding, weak interactions only approximated, highest concentration 200 μM; for interaction with immobilized LSD1 (in words): standard conditions; for fold increase of KD on further C-terminal truncation: relative to the next longer truncated peptide (3 vs 2, 4 vs 3)
T1 construct: LSD1 amino acid residues 172–833; made in house; host or cells: Escherichia coli Rosetta 2 (pET15b)

LSD1 [2] = target: T1, LSD1; experiment: SPR biosensor interaction analysis under modified conditions (25 °C, TBS-T without DTT); format: binding; conditions: SPR at 25 °C, buffer without disulfide exchange reagents; 2-fold dilution series from 50 μM

Structure (SMILES) | KD (LSD1 [1]) | interaction with immobilized LSD1 (in words) (LSD1 [1]) | interaction with immobilized LSD1 (in words) (LSD1 [2]) | further results
CSCC[C@H](NC(=O)[C@H](CCCNC(=N)N)NC(=O)[C@H](CO)NC(=O)[C@H](CCCNC(=N)N)NC(=O)[C@H](C)NC(=O)[C@H](CCCCN)NC(=O)[C@H](CCC(N)=O)NC(=O)[C@@H](N)CCC(=O)O)C(=O)N[C@@H](C)C(=O)N[C@@H](CCCCN)C(=O)N[C@H](C(N)=O)[C@@H](C)O [Peptide 10] | ni | No interaction was observed |  | 
CSCC[C@@H]1NC(=O)[C@H](NC(=O)[C@H](CCCNC(=N)N)NC(=O)[C@H](C)N)CCCCNC(=O)CC[C@@H](C(=O)N[C@@H](C)C(=O)N[C@@H](CCCNC(=N)N)C(=O)N[C@@H](CCCCN)C(=O)N[C@@H](CO)C(=O)N[C@H](C(N)=O)[C@@H](C)O)NC(=O)[C@H](CCC(N)=O)NC1=O (relative stereo) [Peptide 31] |  |  | profile similar to that of lactam 28; also recorded: strong interaction | 
CSCC[C@@H]1NC(=O)[C@@H](NC(=O)[C@H](CCCNC(N)=O)NC(=O)[C@H](C)N)CCC(=O)NCCCC[C@@H](C(=O)N[C@@H](C)C(=O)N[C@@H](CCCNC(=N)N)C(=O)N[C@@H](CCCCN)C(=O)N[C@@H](CO)C(=O)N[C@H](C(N)=O)[C@@H](C)O)NC(=O)[C@H](CCC(N)=O)NC1=O [Peptide 33] |  |  | well-defined dose–response interaction curves | 
CSCC[C@H](NC(=O)[C@@H](NC(=O)[C@H](CCCNC(=N)N)NC(=O)[C@H](C)N)[C@@H](C)O)C(=O)N[C@@H](CCC(N)=O)C(=O)N[C@H](C(=O)N[C@@H](C)C(=O)N[C@@H](CCCNC(=N)N)C(=O)N[C@@H](CCCCN)C(=O)N[C@@H](CO)C(=O)N[C@H](C(=O)NCC(=O)NCC(=O)O)[C@@H](C)O)[C@@H](C)O [Peptide 3] |  |  |  | fold increase of KD on further C-terminal truncation (LSD1 [1]): 7 fold
CSCC[C@H](NC(=O)[C@@H](NC(C)=O)[C@@H](C)O)C(=O)N[C@@H](CCC(N)=O)C(=O)N[C@H](C(=O)N[C@@H](C)C(=O)N[C@@H](CCCNC(=N)N)C(=O)N[C@@H](CCCCN)C(=O)N[C@@H](CO)C(=O)N[C@H](C(=O)NCC(=O)NCC(=O)N[C@@H](CCCCN)C(=O)N[C@@H](C)C(=O)N1CCC[C@H]1C(=O)N[C@@H](CCCNC(=N)N)C(=O)N[C@@H](CCCCN)C(=O)N[C@@H](CCC(N)=O)C(=O)N[C@@H](CC(C)C)C(=O)N[C@@H](C)C(=O)O)[C@@H](C)O)[C@@H](C)O [Peptide 8] | ni ^a | abolished the interaction completely |  | 
CSCC[C@@H]1NC(=O)[C@@H](NC(=O)[C@H](CCCNC(=N)N)NC(=O)[C@H](C)N)CCCCNC(=O)CC[C@@H](C(=O)N[C@@H](C)C(=O)N[C@@H](CCCNC(=N)N)C(=O)N[C@@H](CCCCN)C(=O)N[C@@H](CO)C(=O)N[C@H](C(N)=O)[C@@H](C)O)NC(=O)[C@H](CCC(N)=O)NC1=O [Peptide 27] |  |  | low or undetectable | 
CSCC[C@H](NC(=O)[C@@H](NC(=O)[C@H](CCCNC(=N)N)NC(=O)[C@@H](N)C(C)(C)C)[C@@H](C)O)C(=O)N[C@@H](CCC(N)=O)C(=O)N[C@H](C(=O)N[C@@H](C)C(=O)N[C@@H](CCCNC(=N)N)C(=O)N[C@@H](CCCCN)C(=O)N[C@@H](CO)C(=O)N[C@H](C(N)=O)[C@@H](C)O)[C@@H](C)O [Peptide 12] | ni ^c | absence of a detectable interaction |  | 
CSCC[C@@H]1NC(=O)[C@@H](NC(=O)[C@H](CCCNC(=N)N)NC(=O)[C@H](C)N)CCC(=O)NCCCC[C@@H](C(=O)N[C@@H](C)C(=O)N[C@@H](CCCNC(=N)N)C(=O)N[C@@H](CCCCN)C(=O)N[C@@H](CO)C(=O)N[C@H](C(N)=O)[C@@H](C)O)NC(=O)[C@H](CCC(N)=O)NC1=O [Peptide 28] |  |  | interacted specifically with LSD1 | 
CSCC[C@H](NC(=O)[C@@H](NC(=O)[C@H](CCCNC(N)=O)NC(=O)[C@H](C)N)[C@@H](C)O)C(=O)N[C@@H](CCC(N)=O)C(=O)N[C@H](C(=O)N[C@@H](C)C(=O)N[C@@H](CCCNC(=N)N)C(=O)N[C@@H](CCCCN)C(=O)N[C@@H](CO)C(=O)N[C@H](C(N)=O)[C@@H](C)O)[C@@H](C)O [Peptide 13] | ni | complete loss of interaction; also recorded: absence of interaction |  | 
CSCC[C@@H]1NC(=O)[C@@H](NC(=O)[C@H](CCCNC(=N)N)NC(=O)[C@H](C)N)CCC(=O)NCCCC[C@@H](C(=O)N[C@@H](C)C(=O)N[C@@H](CCCNC(N)=O)C(=O)N[C@@H](CCCCN)C(=O)N[C@@H](CO)C(=O)N[C@H](C(N)=O)[C@@H](C)O)NC(=O)[C@H](CCC(N)=O)NC1=O [Peptide 34] |  |  | well-defined dose–response interaction curves | 
CSCC[C@H](NC(=O)[C@@H](NC(=O)[C@H](CCCNC(=N)N)NC(=O)[C@H](C)N)[C@@H](C)O)C(=O)N[C@@H](CCC(N)=O)C(=O)N[C@H](C(=O)N[C@@H](C)C(=O)N[C@@H](CCCNC(=N)N)C(=O)N[C@@H](CCCCN)C(=O)N[C@@H](CO)C(=O)N[C@H](C(=O)O)[C@@H](C)O)[C@@H](C)O [Peptide 4] |  |  |  | fold increase of KD on further C-terminal truncation (LSD1 [1]): 4 fold
CSCC[C@H](NC(=O)[C@@H](NC(=O)[C@H](CCCNC(=N)N)NC(=O)[C@H](C)N)[C@@H](C)O)C(=O)N[C@@H](CCC(N)=O)C(=O)N[C@H](C(=O)N[C@@H](C)C(=O)N[C@@H](CCCNC(N)=O)C(=O)N[C@@H](CCCCN)C(=O)N[C@@H](CO)C(=O)N[C@H](C(N)=O)[C@@H](C)O)[C@@H](C)O [Peptide 14, ARTMQTA(Cit)KST-NH2] | ni | complete loss of interaction; also recorded: absence of interaction |  | 
C[C@H](N)C(=O)N[C@@H](CCCNC(=N)N)C(=O)N[C@H](C(=O)N[C@@H](CCCCN)C(=O)N[C@@H](CCC(N)=O)C(=O)N[C@H](C(=O)N[C@@H](C)C(=O)N[C@@H](CCCNC(=N)N)C(=O)N[C@@H](CCCCN)C(=O)N[C@@H](CO)C(=O)N[C@H](C(N)=O)[C@@H](C)O)[C@@H](C)O)[C@@H](C)O [Peptide 9] |  | No signs of saturation of the interaction |  | 
